Source: ChEMBL document CHEMBL5375983, “Discovery of YSR734: A Covalent HDAC Inhibitor with Cellular Activity in Acute Myeloid Leukemia and Duchenne Muscular Dystrophy” (J Med Chem, 2023)

Sequences of proteins named here, by UniProt entry; tags and fusion partners are left off.
UniProt Q92769, whole entry: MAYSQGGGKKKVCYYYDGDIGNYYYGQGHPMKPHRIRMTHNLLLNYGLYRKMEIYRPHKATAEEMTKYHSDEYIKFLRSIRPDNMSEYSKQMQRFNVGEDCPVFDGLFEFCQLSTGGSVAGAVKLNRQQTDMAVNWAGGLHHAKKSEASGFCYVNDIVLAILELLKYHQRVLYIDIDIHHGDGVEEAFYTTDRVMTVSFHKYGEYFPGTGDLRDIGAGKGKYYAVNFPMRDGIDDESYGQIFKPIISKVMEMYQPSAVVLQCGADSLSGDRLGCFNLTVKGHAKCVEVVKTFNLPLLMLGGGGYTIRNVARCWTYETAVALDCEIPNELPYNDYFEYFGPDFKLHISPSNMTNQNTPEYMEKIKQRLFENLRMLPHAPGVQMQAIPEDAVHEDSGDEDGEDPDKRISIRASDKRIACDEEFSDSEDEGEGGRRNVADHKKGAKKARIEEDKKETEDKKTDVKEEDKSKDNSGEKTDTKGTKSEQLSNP

The compounds below were run against Histone deacetylase 2 (Homo sapiens, UniProt Q92769) (assay: Binding affinity to recombinant full length HDAC2 (unknown origin) assessed as covalent adduct formation by measuring fold change in adduct:protein ratio at 10 uM incubated for 2 hrs by intact-protein mass spectrometry analysis).

Row | SMILES | fold change (FC)
1 | Nc1ccccc1NC(=O)c1ccc(CNC(=O)OC2CCN(C(=O)CCl)CC2)cc1 | 3.4
2 | C=CS(=O)(=O)N1CCC(OC(=O)NCc2ccc(C(=O)Nc3ccccc3N)cc2)CC1 | 10
3 | C#CC(=O)N1CCC(OC(=O)NCc2ccc(C(=O)Nc3ccccc3N)cc2)CC1 | 10
4 | Nc1ccccc1NC(=O)c1ccc(CNC(=O)OC2CCN(S(=O)(=O)c3c(F)c(F)c(F)c(F)c3F)CC2)cc1 | 10
